Assay: Contact Assay (percentage inhibition from fluorescence intensity)
Format: biochemical
Protocol: The percentage inhibition was calculated using the following equation:
[formula] where, Mean(BG) is the average value of the fluorescence intensity of the background wells and Mean(PC) is the average value of the fluorescence intensity of the positive control wells.
Table 4 provides the EC50 values of various compounds disclosed herein.

Question: With `Cc1cc(N)nc(C)c1CNC(=O)c1ccnc(Cc2cc(C(N)=O)c3ncc(Cl)cc3c2)c1` [Example 58, 6-((4-(((6-amino-2,4-dimethylpyridin-3-yl)methyl)carbamoyl)pyridin-2-yl)methyl)-3-chloroquinoline-8-carboxamide] as the molecule, how does the EC50 read?
Answer: ≤ 100 nM
